Km and Vmax data for two substances are collected here from publication PMC5374532, “Rational mutagenesis by engineering disulphide bonds improves Kluyveromyces lactis beta-galactosidase for high-temperature industrial applications” (Scientific Reports, 2017).

The series deals with O=[N+]([O-])c1ccc(O[C@@H]2O[C@H](CO)[C@H](O)[C@H](O)[C@H]2O)cc1. In words: purified protein. Conditions: Z buffer (100 mM Na2HPO4, 40 mM NaH2PO4, 10 mM KCl, 1.6 mM MgSO4), 30 °C, 0.3 μg/mL enzyme, substrate 0-20 mM, residue 116 also printed as Asp116.

For orientation: Km means the concentration of substrate that gives half-maximal velocity. Broadly, the Vmax is the rate approached at saturating substrate. Turning to “Kl-β-Gal (Kluyveromyces lactis β-galactosidase) (Kluyveromyces lactis NRRL Y-1140; D116C/T270C)”, the Km was determined as 2220 ± 250 µM and the Vmax amounted to 99.4 µmol/min/mg.

With “Kl-β-Gal (Kluyveromyces lactis β-galactosidase) (Kluyveromyces lactis NRRL Y-1140; D116C/G818C/T270C)”, the Km was found to be 2470 ± 360 µM and the Vmax turned out to be 146 µmol/min/mg.
